## Measured affinities in a library of Ab-95 light chain variants

Antigen: PDVDLGDISGINAS, a 14-residue peptide of the SARS-CoV-2 spike HR2 region.

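The parent was found by panning a naive human phage display library on the peptide. Library AAYL52 holds single substitutions and randomly drawn double and triple substitutions in the CDRs. Affinity was read by AlphaSeq, a pooled yeast mating assay with surface-displayed partners. Pairs that bind mate more often; barcode pairs of the diploids are counted by sequencing. Each replicate has its own calibration line, from reference interactions of the BCL2 family. Each pool was mated in three replicate cultures.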

Each scFv is VH, a 15-residue (Gly4Ser)3 linker, VL, as in the parent Ab-95, and differs from it in the CDRs of the light chain only.
VH: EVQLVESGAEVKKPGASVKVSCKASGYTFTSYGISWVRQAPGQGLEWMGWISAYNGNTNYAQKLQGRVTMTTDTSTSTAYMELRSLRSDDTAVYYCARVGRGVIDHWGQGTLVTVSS
VL: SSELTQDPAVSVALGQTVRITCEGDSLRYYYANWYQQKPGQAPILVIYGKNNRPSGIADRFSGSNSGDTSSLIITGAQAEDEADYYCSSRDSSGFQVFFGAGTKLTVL

Positions count from residue 1 of the parent VL; Y30K puts K in place of Y. Every variant below is changed at P54 of the VL (sequential numbering). Values are apparent Kd, the geometric mean of the replicates that gave a signal; lower means stronger binding. A pair that was not seen in any replicate is written "no signal"; this usually means weak binding, but a binder can also be missed. Nonspecific signal, from three strains lacking the peptide, appeared in 28% of pairings of library AAYL52, centred on 8.2 µM (5% of these signals below 800 nM); values are not corrected for it.

With Y30K G49C P54N the result was 28 µM (2 of 3 replicates). Variant L27N P54W gave 2.7 µM (1 of 3 replicates). For G24Y P54N S93F, the assay gave 770 nM (2 of 3 replicates). Variant E23L P54C S89E gave no signal (0 of 3 replicates). Variant N51D P54S G94D showed 3.9 µM (3 of 3 replicates). With G24W P54S the result was 130 nM (3 of 3 replicates). Variant L27Q G49R P54Y gave no signal (0 of 3 replicates).

Variant N52H P54I Q96R gave no signal (0 of 3 replicates). For N33Y R53V P54R, the assay gave no signal (0 of 3 replicates). Variant Y30M P54D D91T showed no signal (0 of 3 replicates). With Y30R P54E S89L the result was 78 nM (3 of 3 replicates). For P54R, the assay gave 360 nM (3 of 3 replicates). Variant R28C P54V showed 3.1 µM (3 of 3 replicates). With S26L L27N P54C the result was no signal (0 of 3 replicates).

Variant R28G P54A F95Q gave 340 nM (3 of 3 replicates). For G49P P54T S92K, the assay gave 92 µM (1 of 3 replicates). For N33Q P54N S88D, the assay gave 260 µM (1 of 3 replicates). With P54M R90M the result was 100 nM (3 of 3 replicates). For E23G G24N P54G, the assay gave 880 nM (3 of 3 replicates). Variant G24S P54F R90P gave 20 µM (2 of 3 replicates). Variant G49M N51C P54S gave no signal (0 of 3 replicates).

Variant P54G S93Q gave 530 nM (3 of 3 replicates). For G24W P54R F98V, the assay gave 6.1 µM (1 of 3 replicates). Variant P54M S55A S89E gave 440 nM (3 of 3 replicates). For D25T P54D R90H, the assay gave 4.6 µM (2 of 3 replicates). With P54M D91R the result was 24 µM (2 of 3 replicates). For Y31A P54F, the assay gave 210 nM (3 of 3 replicates). Variant R53M P54S S93F showed 88 µM (2 of 3 replicates).

Variant D25F R28D P54S showed 2.9 µM (1 of 3 replicates). Variant S26I P54D S93V gave 5.2 µM (2 of 3 replicates). With R28C P54Y S55R the result was 2.6 µM (1 of 3 replicates). Variant P54L R90C F95T gave no signal (0 of 3 replicates).

Top 5 of the variants detected in all replicates, tightest first:

Y30R P54E S89L: 78 nM (3 of 3 replicates).
P54M R90M: 100 nM (3 of 3 replicates).
G24W P54S: 130 nM (3 of 3 replicates).
Y31A P54F: 210 nM (3 of 3 replicates).
R28G P54A F95Q: 340 nM (3 of 3 replicates).

In this assay the parent's reference entry averaged 200 nM; its copy inside this library read 180 nM.

Values reported by Engelhart et al. 2022, doi:10.1038/s41597-022-01779-4 (FLAb copy).